Results from US20240166610A1, “SUBSTITUTED PYRIDAZINE PHENOL DERIVATIVES” (MEDSHINE DISCOVERY INC., priority 2021, published 2024).

Protein sequences, listed by entry. Tags and fused reporters are not part of them.
UniProt Q96P20, whole entry: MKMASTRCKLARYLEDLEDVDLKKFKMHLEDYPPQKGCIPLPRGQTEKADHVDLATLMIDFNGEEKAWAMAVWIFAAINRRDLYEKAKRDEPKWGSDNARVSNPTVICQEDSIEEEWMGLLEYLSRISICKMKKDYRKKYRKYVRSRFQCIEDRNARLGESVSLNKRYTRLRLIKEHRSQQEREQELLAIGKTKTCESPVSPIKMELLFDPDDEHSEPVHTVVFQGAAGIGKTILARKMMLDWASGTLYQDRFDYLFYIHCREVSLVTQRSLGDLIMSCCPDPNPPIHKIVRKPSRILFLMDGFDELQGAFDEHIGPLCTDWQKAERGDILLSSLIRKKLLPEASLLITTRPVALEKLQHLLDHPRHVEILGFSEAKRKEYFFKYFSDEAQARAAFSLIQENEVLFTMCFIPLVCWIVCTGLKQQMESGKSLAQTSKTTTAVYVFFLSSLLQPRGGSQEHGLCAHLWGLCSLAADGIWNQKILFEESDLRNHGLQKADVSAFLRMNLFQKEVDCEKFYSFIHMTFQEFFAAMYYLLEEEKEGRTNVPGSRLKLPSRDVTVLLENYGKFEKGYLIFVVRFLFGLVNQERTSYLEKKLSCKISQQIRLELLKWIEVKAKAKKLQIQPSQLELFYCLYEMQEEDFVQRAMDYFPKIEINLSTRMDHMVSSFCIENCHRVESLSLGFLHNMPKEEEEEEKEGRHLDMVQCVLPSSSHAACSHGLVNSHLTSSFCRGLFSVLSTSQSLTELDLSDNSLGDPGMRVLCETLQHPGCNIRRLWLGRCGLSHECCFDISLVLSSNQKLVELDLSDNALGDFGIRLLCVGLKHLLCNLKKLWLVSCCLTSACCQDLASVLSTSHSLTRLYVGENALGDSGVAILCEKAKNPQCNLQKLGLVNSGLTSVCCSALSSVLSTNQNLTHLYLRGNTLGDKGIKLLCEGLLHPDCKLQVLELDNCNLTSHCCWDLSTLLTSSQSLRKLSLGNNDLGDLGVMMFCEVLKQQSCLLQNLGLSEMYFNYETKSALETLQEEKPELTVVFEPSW

What follows are compounds tested against NLRP3 (Homo sapiens, UniProt Q96P20) (assay: Detecting IC50 of NLRP3 inhibitor by using THP-1 cells (IL-1β secretion, CBA)). Conditions: PMA/LPS/ATP, IL-1β in supernatant.
Assay type: cell-based

`Cc1cc(N[C@@H]2CCCN(C3COC3)C2)nnc1-c1ccc(C2CCCCC2)cc1O` and `Cc1cc(NC2COC3(CCN(C)CC3)C2)nnc1-c1ccc2sccc2c1O` (single isomer, unassigned) [Compound 68a] are within 1.5-fold of each other in IC50: 0.028 µM for the first, 0.0334 µM for the second.

Work on `Cc1cc(NC2COC3(CCN(C)CC3)C2)nnc1-c1ccc2sccc2c1O` (single isomer, unassigned) [Compound 68b] yielded an IC50 of 0.0243 µM.
